The source of these data is patent US10517864B2 (priority 2014, dated 2019).

Where two headings read alike, the source gives them in different places.

This series is classed as physicochemical. The conditions noted are these: for Buprenorphine HCl Solubility: room temperature. How it is done:
Excess amount of buprenorphine or buprenorphine hydrochloride was weighed into a 1.8 cc HPLC vial containing about 0.5 g selected solvent. The vial was capped and placed on a jar mill rotating at 100 rpm at room temperature overnight. It was then centrifuged and part of top clear solution was weighed out and diluted in 1% acetic acid aqueous solution. Buprenorphine content in the solution was measured using the HPLC method described above.

Turning to Buprenorphine HCl, the “Buprenorphine HCl Solubility” value was 14.9 %, w/w (80/20 NMP/water (w/w)); 11.3 %, w/w (DMAC); 19.7 %, w/w (DMSO); 17.9 %, w/w (NMP). Also, the “buprenorphine hydrochloride solution that can be prepared” value (NMP, DMSO, or DMAC) is “more than 10 % by weight”.
